Sequences of proteins named here, by UniProt entry; tags and fusion partners are left off.
UniProt P22748, whole entry, looked up: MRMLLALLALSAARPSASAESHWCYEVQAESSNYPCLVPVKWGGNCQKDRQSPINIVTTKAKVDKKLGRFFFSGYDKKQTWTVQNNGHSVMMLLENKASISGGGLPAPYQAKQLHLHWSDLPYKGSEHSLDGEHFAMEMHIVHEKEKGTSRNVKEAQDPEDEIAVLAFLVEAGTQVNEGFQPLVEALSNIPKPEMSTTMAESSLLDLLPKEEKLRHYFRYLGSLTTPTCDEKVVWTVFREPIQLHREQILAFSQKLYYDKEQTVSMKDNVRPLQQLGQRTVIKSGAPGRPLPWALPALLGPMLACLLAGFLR

According to BindingDB's records for 15501038:

Molecular target: Carbonic anhydrase 4 (Homo sapiens, UniProt P22748)

In the case of `[N-]=[N+]=N`, the Ki is reported as 65.1 mM.
